Assay [1] deals with Nitric oxide synthase 1 (Rattus norvegicus, UniProt P29476). As to the kind of experiment: Inhibition of rat recombinant nNOS expressed in Escherichia coli by hemoglobin capture assay.
Assay [2] concerns the target T1, Nitric oxide synthase 3 (Bos taurus, UniProt P29473).
T1 sequence (P29473 whole entry): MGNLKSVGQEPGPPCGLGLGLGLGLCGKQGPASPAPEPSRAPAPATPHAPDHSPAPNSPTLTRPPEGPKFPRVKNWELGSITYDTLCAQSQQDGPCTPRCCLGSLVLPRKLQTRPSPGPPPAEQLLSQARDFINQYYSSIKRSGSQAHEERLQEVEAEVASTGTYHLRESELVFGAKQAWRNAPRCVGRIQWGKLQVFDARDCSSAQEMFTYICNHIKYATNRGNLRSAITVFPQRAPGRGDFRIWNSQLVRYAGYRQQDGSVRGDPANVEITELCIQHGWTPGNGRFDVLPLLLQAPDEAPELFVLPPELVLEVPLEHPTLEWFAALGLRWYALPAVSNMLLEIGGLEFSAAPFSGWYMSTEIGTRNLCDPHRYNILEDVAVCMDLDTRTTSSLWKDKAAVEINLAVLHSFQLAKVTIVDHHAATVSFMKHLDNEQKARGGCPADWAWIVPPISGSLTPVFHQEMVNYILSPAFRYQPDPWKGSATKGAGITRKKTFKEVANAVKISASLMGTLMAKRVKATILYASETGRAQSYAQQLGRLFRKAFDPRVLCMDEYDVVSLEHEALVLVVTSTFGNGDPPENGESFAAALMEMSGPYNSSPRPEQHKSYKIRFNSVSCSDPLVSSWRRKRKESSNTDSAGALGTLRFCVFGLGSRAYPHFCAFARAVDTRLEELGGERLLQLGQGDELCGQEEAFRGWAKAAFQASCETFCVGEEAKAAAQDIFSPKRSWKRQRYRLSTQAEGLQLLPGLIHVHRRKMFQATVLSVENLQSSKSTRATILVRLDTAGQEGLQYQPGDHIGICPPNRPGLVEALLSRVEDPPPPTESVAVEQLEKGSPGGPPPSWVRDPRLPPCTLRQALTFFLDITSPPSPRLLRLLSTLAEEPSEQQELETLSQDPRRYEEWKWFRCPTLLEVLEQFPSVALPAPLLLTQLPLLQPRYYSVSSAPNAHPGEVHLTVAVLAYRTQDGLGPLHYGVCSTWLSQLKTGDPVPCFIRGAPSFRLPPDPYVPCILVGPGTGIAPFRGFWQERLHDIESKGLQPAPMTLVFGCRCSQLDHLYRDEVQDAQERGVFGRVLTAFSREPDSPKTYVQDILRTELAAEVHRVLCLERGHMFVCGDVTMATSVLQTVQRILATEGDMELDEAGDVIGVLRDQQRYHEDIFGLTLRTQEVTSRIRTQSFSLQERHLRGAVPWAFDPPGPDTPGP
As to the kind of experiment: Inhibition of bovine recombinant eNOS expressed in Escherichia coli by hemoglobin capture assay.

Sequences of proteins named here, by UniProt entry; tags and fusion partners are left off.
UniProt P29476, whole entry: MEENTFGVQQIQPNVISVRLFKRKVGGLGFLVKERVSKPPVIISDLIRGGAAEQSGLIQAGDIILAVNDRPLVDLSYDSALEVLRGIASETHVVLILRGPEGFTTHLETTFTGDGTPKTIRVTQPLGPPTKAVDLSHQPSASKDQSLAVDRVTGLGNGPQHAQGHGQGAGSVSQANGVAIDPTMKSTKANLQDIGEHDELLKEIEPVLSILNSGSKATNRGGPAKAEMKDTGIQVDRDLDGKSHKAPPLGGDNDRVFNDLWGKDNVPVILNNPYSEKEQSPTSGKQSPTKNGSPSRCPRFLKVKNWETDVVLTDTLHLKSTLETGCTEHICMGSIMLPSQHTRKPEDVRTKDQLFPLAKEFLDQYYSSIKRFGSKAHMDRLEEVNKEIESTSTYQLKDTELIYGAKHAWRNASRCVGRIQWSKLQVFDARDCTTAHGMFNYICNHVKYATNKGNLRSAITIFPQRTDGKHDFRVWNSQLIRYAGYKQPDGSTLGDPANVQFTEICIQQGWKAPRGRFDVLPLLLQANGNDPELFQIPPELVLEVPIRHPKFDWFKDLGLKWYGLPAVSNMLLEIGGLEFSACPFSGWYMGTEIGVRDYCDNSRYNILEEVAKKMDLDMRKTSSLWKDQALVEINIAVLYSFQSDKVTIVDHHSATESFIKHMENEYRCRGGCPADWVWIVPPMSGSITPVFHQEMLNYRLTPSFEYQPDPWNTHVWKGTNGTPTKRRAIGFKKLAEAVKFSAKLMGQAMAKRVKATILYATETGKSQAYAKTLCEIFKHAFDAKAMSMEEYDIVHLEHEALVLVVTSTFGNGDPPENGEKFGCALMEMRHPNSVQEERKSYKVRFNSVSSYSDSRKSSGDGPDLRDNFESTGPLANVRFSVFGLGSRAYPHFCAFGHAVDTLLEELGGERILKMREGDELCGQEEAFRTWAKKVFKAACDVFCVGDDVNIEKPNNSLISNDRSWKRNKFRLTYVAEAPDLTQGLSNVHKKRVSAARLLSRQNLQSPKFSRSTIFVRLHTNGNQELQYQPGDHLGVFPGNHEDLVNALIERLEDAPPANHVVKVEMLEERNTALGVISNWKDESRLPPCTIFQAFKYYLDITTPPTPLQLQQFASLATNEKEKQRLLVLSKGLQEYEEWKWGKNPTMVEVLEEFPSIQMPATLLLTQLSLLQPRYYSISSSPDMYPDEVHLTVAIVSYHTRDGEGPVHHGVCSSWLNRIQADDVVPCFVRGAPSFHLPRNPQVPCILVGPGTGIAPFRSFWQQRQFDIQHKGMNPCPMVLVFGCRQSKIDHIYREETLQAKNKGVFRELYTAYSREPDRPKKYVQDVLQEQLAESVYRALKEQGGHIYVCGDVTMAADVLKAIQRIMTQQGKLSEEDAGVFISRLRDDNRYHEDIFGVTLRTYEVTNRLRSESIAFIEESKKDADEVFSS

The target in assay [3] is T2, Nitric oxide synthase, inducible (Mus musculus, UniProt P29477).
T2 sequence (P29477 whole entry): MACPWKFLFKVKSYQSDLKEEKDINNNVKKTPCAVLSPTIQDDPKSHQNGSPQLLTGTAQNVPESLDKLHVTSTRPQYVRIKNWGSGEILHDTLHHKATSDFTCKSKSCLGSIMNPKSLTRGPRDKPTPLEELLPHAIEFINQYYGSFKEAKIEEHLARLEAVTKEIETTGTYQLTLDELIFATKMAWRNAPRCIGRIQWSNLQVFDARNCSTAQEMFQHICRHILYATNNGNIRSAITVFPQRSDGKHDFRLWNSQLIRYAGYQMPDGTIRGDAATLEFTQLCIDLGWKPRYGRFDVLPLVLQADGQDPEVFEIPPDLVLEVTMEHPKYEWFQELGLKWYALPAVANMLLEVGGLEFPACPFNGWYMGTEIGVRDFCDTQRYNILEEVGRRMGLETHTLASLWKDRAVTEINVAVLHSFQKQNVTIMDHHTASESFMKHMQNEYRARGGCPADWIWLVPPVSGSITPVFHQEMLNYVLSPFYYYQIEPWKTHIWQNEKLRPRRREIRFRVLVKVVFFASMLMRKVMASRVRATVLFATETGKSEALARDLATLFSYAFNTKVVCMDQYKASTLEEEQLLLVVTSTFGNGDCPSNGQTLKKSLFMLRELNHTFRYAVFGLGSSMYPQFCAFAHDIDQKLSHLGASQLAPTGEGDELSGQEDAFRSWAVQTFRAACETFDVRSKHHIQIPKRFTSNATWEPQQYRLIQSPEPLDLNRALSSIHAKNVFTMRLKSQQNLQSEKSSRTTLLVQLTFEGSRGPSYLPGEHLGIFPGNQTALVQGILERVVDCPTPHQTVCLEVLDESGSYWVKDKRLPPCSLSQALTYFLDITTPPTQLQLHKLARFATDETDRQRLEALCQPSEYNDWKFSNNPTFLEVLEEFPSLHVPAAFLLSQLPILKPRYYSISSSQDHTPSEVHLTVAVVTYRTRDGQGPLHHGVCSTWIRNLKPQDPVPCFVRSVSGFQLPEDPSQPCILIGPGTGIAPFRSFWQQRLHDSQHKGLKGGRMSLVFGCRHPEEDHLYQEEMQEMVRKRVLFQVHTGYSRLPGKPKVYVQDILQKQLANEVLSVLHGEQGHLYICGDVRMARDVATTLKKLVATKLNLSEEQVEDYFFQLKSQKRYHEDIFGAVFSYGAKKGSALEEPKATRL
In words: Inhibition of mouse recombinant iNOS expressed in Escherichia coli by hemoglobin capture assay.

Consider `Cc1cc(N)nc(C[C@@H]2CNC[C@@H]2OCc2ccc(-c3cccc(C(F)(F)F)c3)cc2)c1` (racemic), for which the Ki in assay [1] was 0.82 µM.

With `Cc1cc(N)nc(C[C@@H]2CNC[C@@H]2OCc2ccc(-c3ccc(F)c(C)c3)cc2)c1` (racemic), in assay [2], the Ki was 8 µM.

`Cc1cc(N)nc(C[C@@H]2CNC[C@@H]2OCc2ccc(-c3ccc(F)c(Cl)c3)cc2)c1` (racemic): the Ki amounted to 50 µM in assay [3] and 13.3 µM in assay [2].

As a reminder, the Ki is the equilibrium dissociation constant of an inhibitor or competing ligand from its target.

Values taken from ChEMBL document CHEMBL1221276, “Structure-based design, synthesis, and biological evaluation of lipophilic-tailed monocationic inhibitors of neuronal nitric oxide synthase” (Bioorg Med Chem, 2010).
